Ab-14 heavy chain CDR variants: yeast mating affinities

Target peptide (SARS-CoV-2 spike, HR2 region): PDVDLGDISGINAS

Parent scFv Ab-14: VH joined to VL by a 15-residue (Gly4Ser)3 linker. Changes lie in the heavy chain CDRs alone.
VH: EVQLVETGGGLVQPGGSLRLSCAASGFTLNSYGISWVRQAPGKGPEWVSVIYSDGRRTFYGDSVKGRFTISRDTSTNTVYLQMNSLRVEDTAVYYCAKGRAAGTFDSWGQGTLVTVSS
VL: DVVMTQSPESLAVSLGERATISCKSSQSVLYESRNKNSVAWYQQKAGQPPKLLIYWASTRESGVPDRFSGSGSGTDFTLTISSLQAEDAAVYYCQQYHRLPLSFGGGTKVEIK

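The starting antibody came from a phage panning campaign against this peptide. Library AAYL49 holds single substitutions and randomly drawn double and triple substitutions in the CDRs. The scFvs were displayed on barcoded MATa yeast, the peptide on MATalpha yeast. Binding brings cells together so that they mate, and sequencing counts the barcode pairs among the diploids. Scores were corrected for input abundance and mapped to Kd with protein pairs of known affinity run in the same pool. Each pool was mated in three replicate cultures.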

Substitutions are numbered in sequence along the VH above, starting at 1 (not Kabat).
Scale: log10 of Kd in nM, estimated from mating counts; low values are strong binders.
Replicates are averaged; those with no signal do not enter the mean.
"nd" marks a missing value. The strain was present, yet no cells mated with the target were sequenced in any replicate, which points to weak or no binding.

| mean, log10 nM | detected | changes |
|---|---|---|
| 4.05 | 2 of 3 | G33M I51L S53F |
| nd | 0 of 3 | L29W T58A T104S |
| nd | 0 of 3 | G26N D54C Y60V |
| 4.26 | 2 of 3 | V50R G99F G103T |
| nd | 0 of 3 | I34W R56P A101N |
| nd | 0 of 3 | Y32Q D54I S63L |
| nd | 0 of 3 | D54I G55Q F59P |
| 4.38 | 1 of 3 | G33T G99D F105R |
| nd | 0 of 3 | V50A G55M D62H |
| nd | 0 of 3 | I34F I51L S63T |
| nd | 0 of 3 | G26F F59K S63D |
| 3.85 | 1 of 3 | T58G K65F A102N |
| nd | 0 of 3 | N30T I51Q S63C |
| 2.78 | 3 of 3 | F59E D62W |
| 0.55 | 3 of 3 | T28N S63E |
| 3.01 | 3 of 3 | F27S L29M S63M |
| 3.29 | 1 of 3 | G33V A102R T104H |
| nd | 0 of 3 | Y32G I34E G103F |
| 3.96 | 2 of 3 | L29C G55S G61Y |
| nd | 0 of 3 | L29R T58D K65F |
| nd | 0 of 3 | G33L V50L F59H |
| 4.97 | 1 of 3 | Y52G K65A R100S |
| nd | 0 of 3 | F27R D54G A101S |
| 4.06 | 1 of 3 | V50C A101C |
| nd | 0 of 3 | L29P I51M V64K |
| nd | 0 of 3 | Y60R G61T |
| nd | 0 of 3 | G33N G99I T104F |
| 0.94 | 2 of 3 | S31G A102C T104R |
| 2.10 | 1 of 3 | Y32T F105T |
| nd | 0 of 3 | I51K A101E G103H |
| 0.79 | 3 of 3 | T28A S63K G103H |
| 4.54 | 2 of 3 | I34N G61S A102W |
| 5.42 | 1 of 3 | T58K G61N G103D |
| nd | 0 of 3 | G26A F27Y Y60Q |
| nd | 0 of 3 | S31Y Y52N S63F |
| nd | 0 of 3 | I51K G55R A101W |
| 1.98 | 1 of 3 | G26H V50I R100N |
| nd | 0 of 3 | S53K D54L R100A |
| 4.55 | 1 of 3 | I34S G55D S63Q |
| 5.17 | 1 of 3 | S31Y I51D G55R |
| 4.88 | 1 of 3 | D54W Y60I F105I |
| nd | 0 of 3 | T28A L29F S53L |
| 4.30 | 3 of 3 | S35V D54H A101P |
| 3.48 | 3 of 3 | Y60A S63Q T104Q |
| nd | 0 of 3 | T28E D54R S63A |
| nd | 0 of 3 | L29Q S35F R100H |
| 4.64 | 1 of 3 | Y52S G103K F105Y |
| nd | 0 of 3 | F27C Y32S D106A |
| nd | 0 of 3 | G26S F27T T104L |
| nd | 0 of 3 | S35I V64P G99D |
| nd | 0 of 3 | I51N V64W A101E |
| nd | 0 of 3 | T28Y I34N R56M |
| 3.70 | 3 of 3 | S53V G99R A101I |
| 2.13 | 3 of 3 | S63P A101C |
| 1.74 | 3 of 3 | D62Q S63Q |
| nd | 0 of 3 | N30H R56C D62C |
| 5.08 | 1 of 3 | G26N S35V K65L |
| 4.01 | 1 of 3 | F59Q G99L S107V |
| nd | 0 of 3 | L29V I51F K65Y |
| nd | 0 of 3 | F59T G61W D62S |
| 3.76 | 1 of 3 | T28V S53R T104F |
| 3.36 | 3 of 3 | N30P S63N R100G |
| 1.91 | 3 of 3 | V64A F105I |
| nd | 0 of 3 | Y32F G33S R100Q |
| nd | 0 of 3 | S31M Y32N S35F |

The closing 10 entries, repeated:

changes	mean, log10 nM	detected
N30H R56C D62C	nd	0 of 3
G26N S35V K65L	5.08	1 of 3
F59Q G99L S107V	4.01	1 of 3
L29V I51F K65Y	nd	0 of 3
F59T G61W D62S	nd	0 of 3
T28V S53R T104F	3.76	1 of 3
N30P S63N R100G	3.36	3 of 3
V64A F105I	1.91	3 of 3
Y32F G33S R100Q	nd	0 of 3
S31M Y32N S35F	nd	0 of 3

Parent in this assay: reference entry 0.65, copy in this library 4.11 (one replicate of three).
Three control strains display no target. For library AAYL49, 15% of the pairings with them gave a signal, with a median of 4.06 and one signal in twenty below 2.83, so weak values seen in few replicates may be background.

Source: Engelhart et al. 2022 (doi:10.1038/s41597-022-01779-4), MIT Lincoln Laboratory and A-Alpha Bio; data file from the FLAb repository.